Source: patent US20180258123A1, “Suppressors of Premature Termination Codons as Therapeutics and Methods for Their Use” (The University of British Columbia, priority 2015, published 2018)

How the values were obtained:
[1] = system: HDQ-P1 cells homozygous for TGA (R213X) in exon 6 of the TP53 gene; experiment: Automated p53 immunofluorescence 96-well plate assay (PTC read-through); type: cell-based, human; conditions: HDQ-P1, 72 h, concentrations tested did not exceed 200 μM
[2] = system: HDQ-P1 cells homozygous for TGA (R213X) in exon 6 of the TP53 gene; experiment: Automated electrophoresis western analysis of full-length and truncated p53; type: cell-based, human; conditions: 3 mM
[3] = system: NCI-H1299 tumour xenografts stably expressing TP53 R213X (TGA); experiment: Induction of PTC readthrough in vivo in tumour xenograft (FIG. 8); set-up: species or system mice; conditions: intraperitoneal; 5 consecutive days (FIG. 8A) or once at 200 and 400 mg/kg (FIG. 8B)

Compound | PTC read-through activity, 96-well plate assay (FIG. 2) [1] | PTC read-through activity by western analysis (FIG. 3A) [2] | PTC readthrough (full-length p53) in tumour xenograft [3]
CN[C@@H]1[C@@H](O)[C@@H](O[C@@H]2[C@@H](O)[C@H](O)[C@@H](N)C[C@H]2N)OC[C@]1(C)O [garamine] | no activity whatsoever | – | –
CN[C@@H]1[C@@H](O)[C@@H](O[C@@H]2[C@@H](O)[C@H](O[C@H]3O[C@H](CN)[C@@H](O)[C@H](O)[C@H]3O)[C@@H](N)C[C@H]2N)OC[C@]1(C)O [Gentamicin B] | no activity whatsoever | – | –
CN[C@@H]1[C@@H](O)[C@@H](O[C@@H]2[C@@H](O)[C@H](O[C@H]3O[C@H]([C@@H](C)NC)CC[C@H]3N)[C@@H](N)C[C@H]2N)OC[C@]1(C)O [Gentamicin C1] | no activity whatsoever | – | –
CN[C@@H]1[C@@H](O)[C@@H](O[C@@H]2[C@@H](O)[C@H](O[C@H]3O[C@H]([C@@H](C)N)CC[C@H]3N)[C@@H](N)C[C@H]2N)OC[C@]1(C)O [Gentamicin C2] | no activity whatsoever | – | –
CN[C@@H]1[C@@H](O)[C@@H](O[C@@H]2[C@@H](O)[C@H](O[C@H]3O[C@H](CO)[C@@H](O)[C@H](O)[C@H]3N)[C@@H](N)C[C@H]2N)OC[C@H]1O [Gentamicin A] | no activity whatsoever | – | –
Gentamicin | did not induce PTC read-through | active | no readthrough was detected
CNC[C@@H]1CC[C@@H](N)[C@@H](O[C@H]2[C@H](O)[C@@H](O[C@H]3OC[C@](C)(O)[C@H](NC)[C@H]3O)[C@H](N)C[C@@H]2N)O1 [Gentamicin C2b] | no activity whatsoever | – | –
CN[C@@H]1[C@@H](O)[C@@H](O[C@@H]2[C@@H](O)[C@H](O[C@H]3O[C@H]([C@H](C)N)CC[C@H]3N)[C@@H](N)C[C@H]2N)OC[C@]1(C)O [Gentamicin C2a] | no activity whatsoever | – | –
